scFv variants of Ab-14 (light chain) against a SARS-CoV-2 spike peptide

Source: Engelhart et al. 2022 (doi:10.1038/s41597-022-01779-4), MIT Lincoln Laboratory and A-Alpha Bio; data file from the FLAb repository.

Target: peptide PDVDLGDISGINAS, taken from heptad repeat 2 (HR2) of SARS-CoV-2 spike.

Parent: Ab-14, a human scFv built as VH, the linker GGGGSGGGGSGGGGS, VL. Only the CDRs of the light chain vary.
VH: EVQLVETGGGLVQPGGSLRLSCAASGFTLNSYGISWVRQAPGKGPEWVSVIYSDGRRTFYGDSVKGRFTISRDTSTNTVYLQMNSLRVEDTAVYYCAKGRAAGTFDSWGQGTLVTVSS
VL: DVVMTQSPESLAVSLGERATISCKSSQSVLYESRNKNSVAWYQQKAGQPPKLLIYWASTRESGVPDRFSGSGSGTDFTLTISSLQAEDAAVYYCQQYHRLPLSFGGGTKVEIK

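The parent was found by panning a naive human phage display library on the peptide. In library AAYL50, one, two or three CDR residues were substituted; doubles and triples were drawn at random. The scFvs were displayed on barcoded MATa yeast, the peptide on MATalpha yeast. Mating (16 h, 30 °C) was followed by selection of diploids and sequencing of their barcodes. A regression on co-assayed BCL2-family reference pairs converts the normalised counts of each replicate to an apparent Kd. Mating was done three times.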

The parent's light chain CDRs are KSSQSVLYESRNKNSVA, WASTRES, QQYHRLPLS; each variant's own CDRs replace them letter for letter. Every variant below is changed at W56 of the VL (sequential numbering). Kd is apparent (estimated from mating counts) and averaged on the log scale over replicates with a signal. Smaller is tighter. "no signal" marks a missing value. The strain was present, yet no cells mated with the target were sequenced in any replicate, which points to weak or no binding. Three control strains display no target. For library AAYL50, 18% of the pairings with them gave a signal, with a median of 15 µM and one signal in twenty below 970 nM, so weak values seen in few replicates may be background. For each scFv, signals with the empty controls are counted beside the result.

CDR-L1,CDR-L2,CDR-L3,apparent Kd,detected,signal with controls
KSSQSVLYESRNKNSLA,NASERES,QQYHRLPLS,16 nM,3 of 3,0 of 9
KSSQSVLYTSRNKNSVA,MASTRES,QQYHRLPLS,5.2 nM,3 of 3,4 of 9
WSSQSVLYESSNKNSVA,NASTRES,QQYHRLPLS,1.7 nM,3 of 3,6 of 9
KSSQSVQYESRNKNSVA,CASTREN,QQYHRLPLS,210 nM,3 of 3,3 of 9
KSSQSVSYESRNKNSVA,LASTRES,QQYHRKPLS,54 µM,2 of 3,1 of 9
KSSQSKLYESRNKNSVA,PASTRES,QQYHRYPLS,no signal,0 of 3,0 of 9
KSSQSVLYESRNKNSVA,DAITRES,QQYHRAPLS,1.3 nM,3 of 3,2 of 9
KSSQSVLYESRNKNSMA,AASTRES,QQSHRLPLS,9.5 nM,3 of 3,7 of 9
KSSQSVLYESRNQNSVA,RASTREK,QQYHRLPLS,10 nM,3 of 3,0 of 9
KSSQSRLYESRNKNSVA,QCSTRES,QQYHRLPLS,4.1 nM,3 of 3,1 of 9
KSSQSVLYESKNKNSVA,PASTRES,QQGHRLPLS,48 µM,2 of 3,4 of 9
KSSQSVLYESRNKNSVY,EASTRES,QQYHRLPLT,41 µM,1 of 3,0 of 9
KSSQSVLYESLNKNSVA,SASTRKS,QQYHRLPLS,160 nM,3 of 3,1 of 9
KNSQSVLYESRNKNSVA,RASTRES,QQYRRLPLS,3.0 nM,3 of 3,1 of 9
KSSQSVAYESRNKNSVA,SASTRES,QQYHRLPLY,7.9 nM,3 of 3,1 of 9
KSSQSVLYESRNKNSVA,RASTRES,QQYHRNPLS,no signal,0 of 3,0 of 9
KSSQYYLYESRNKNSVA,FASTRES,QQYHRLPLS,110 nM,3 of 3,0 of 9
KSSQSVLYESRNKNSVA,AASTRES,QQYHRLPLS,2.0 nM,3 of 3,6 of 9
KSSQSVLYESRNKNSVA,RASTRVS,QQYRRLPLS,1.3 µM,3 of 3,0 of 9
KSSQSVLYESRNKNSVA,GASTRES,QQYARLPLC,1.2 nM,3 of 3,3 of 9
KSSQSVLYESRNYNSVA,RASTRES,QQYHRLPVS,5.1 nM,3 of 3,3 of 9
KSCQSVLYESRNKNSVA,NASQRES,QQYHRLPLS,3.7 nM,3 of 3,6 of 9
KSSQSVLYESRNKNSVY,EAETRES,QQYHRLPLS,no signal,0 of 3,1 of 9
KSSQSVLYESRNKNSSA,DASTRWS,QQYHRLPLS,90 µM,3 of 3,6 of 9
KSSQSVLYESRNKNSVA,GASTREH,QSYHRLPLS,840 pM,3 of 3,1 of 9
KSSQSVLGESRNKNSVA,AAMTRES,QQYHRLPLS,1.3 nM,3 of 3,1 of 9
KSSQSVLYESRNKNSVA,EASTRES,QQYHRLPLS,590 pM,3 of 3,1 of 9
KSSQSVLYESRNKRSVA,KASTRES,QQYHRLPLS,33 nM,3 of 3,3 of 9
KSMQSVLYESNNKNSVA,YASTRES,QQYHRLPLS,4.1 nM,3 of 3,1 of 9
KSSQSVLYESRKKNSVA,HASTRES,QQYHRLPES,180 µM,1 of 3,2 of 9
KSSQSVLYESRNKESVA,MASTRES,QQYHRLPLA,11 nM,3 of 3,4 of 9
KSSQWVLYESRNKNSVA,CASTRES,QQYHRLPLS,no signal,0 of 3,0 of 9
KSSQSVLYQSCNKNSVA,FASTRES,QQYHRLPLS,45 nM,3 of 3,1 of 9
KSSQSVLYESRNKNSVA,YASTRES,QGYHRLPLD,no signal,0 of 3,0 of 9
KSSQSVLDESRNKHSVA,PASTRES,QQYHRLPLS,4.7 µM,3 of 3,7 of 9
KSSQSVLYESRNKNCVA,MASTRES,QQYHRLPPS,no signal,0 of 3,0 of 9
LSSQSVLYESRNKNSVA,SAETRES,QQYHRLPLS,1.6 nM,3 of 3,7 of 9
KSSQSVLYGSRNKNSVA,YASTRES,QQYHRLPLW,2.4 nM,3 of 3,1 of 9
KSSQSVLDESRNKNSVA,EASTRER,QQYHRLPLS,1.4 nM,3 of 3,2 of 9
KSSQSVRYETRNKNSVA,TASTRES,QQYHRLPLS,38 nM,3 of 3,1 of 9
KSSQSVLYEPRNKNSVA,TAMTRES,QQYHRLPLS,73 nM,3 of 3,3 of 9
KSSQSVLYESRNKNSVA,FASTRES,QPYSRLPLS,no signal,0 of 3,1 of 9
KSSQSVLYESRNKNSVA,AATTRES,QQYNRLPLS,9.9 nM,3 of 3,0 of 9
KSSISVLYESRNPNSVA,GASTRES,QQYHRLPLS,840 pM,3 of 3,4 of 9
KSSQSVLYESRNKNSVA,EKFTRES,QQYHRLPLS,950 pM,3 of 3,3 of 9
KSSQSVLYESDNKNSVA,PAATRES,QQYHRLPLS,no signal,0 of 3,0 of 9
KSSQSSLYESRNKPSVA,SASTRES,QQYHRLPLS,1.9 nM,3 of 3,5 of 9
KSSQSVLYESRNKNSGM,EASTRES,QQYHRLPLS,40 µM,3 of 3,5 of 9
CSSQSVLYESRNKNSVA,FASTRES,QQYHRLPAS,1.0 µM,3 of 3,4 of 9
KSSQSVLYESRNKNSVA,IASTRES,QQYHRLPGI,24 µM,2 of 3,1 of 9
KSSASVLYESRNKNSVA,GASTRES,QQYHRVPLS,no signal,0 of 3,0 of 9
KSSQSVLYESRNENSVA,EASTRES,QQYHRLPLF,920 pM,3 of 3,6 of 9
KSYQSVLYESRNKNSVA,NASTRES,QQYHRLPLS,790 pM,3 of 3,4 of 9
KSSQSVLYESRNKNSPA,LAHTRES,QQYHRLPLS,no signal,0 of 3,1 of 9
KSSQSVLYESRNKNSVA,IASTRES,QQYHRLPLS,98 µM,1 of 3,4 of 9
KSSQSVLYESRNKNSMA,SASTREY,QQYHRLPLS,1.6 nM,3 of 3,6 of 9
KSSQHVLYESRTKNSVA,NASTRES,QQYHRLPLS,210 nM,1 of 3,2 of 9
KSSQSVLYESRNKNPVW,HASTRES,QQYHRLPLS,no signal,0 of 3,0 of 9
SSSQSVLYESRNKNSVA,QASRRES,QQYHRLPLS,3.5 nM,3 of 3,1 of 9
KSSQSVLYESRNCNSVA,DRSTRES,QQYHRLPLS,840 pM,3 of 3,5 of 9
KLSQSVLSESRNKNSVA,KASTRES,QQYHRLPLS,11 µM,1 of 3,1 of 9
KSSQSVLYEQRNKNSVA,RASTREH,QQYHRLPLS,30 nM,3 of 3,2 of 9